The values below come from patent publication US20230285509A1, “INTERFERON-BASED DISEASE TREATMENT METHOD” (XIAMEN AMOYTOP BIOTECH CO., LTD., priority 2019, published 2023).

Data set [1] deals with chronic hepatitis B. The data set is described as follows: Conventional continuous interferon therapy of chronic hepatitis B, surface antigen-time curve (Example 1). Type of data set: in vivo, human. Conditions: 180 micrograms per week, continuous for 48 weeks. As for the experimental part: These patients were treated continuously according to the treatment scheme stated in the drug instructions. The treatment scheme of Pegasys: continuous treatment was performed with solely Pegasys in a dosage of 180 micrograms per week for 48 weeks.
Continuous use of interferon for more than 12 weeks or more than 24 weeks may cause partial immune suppression and exhaustion of immune cells, which may lead to poor follow-up treatment effects.

In data set [2] the test system is chronic hepatitis B. Put plainly: Intermittent administration of Pegberon with ETV in chronic hepatitis B patients (Example 2). Type of data set: in vivo, human. Particulars: one patient. On the procedure:
The process was repeated in the next stage.
The nucleotide analogue ETV was administrated orally in 0.5 mg per day.
It is shown that the recovery of immune clearance capability may have achieved in the 5 weeks during which the administration is discontinued.
The nucleotide analogue ETV was administrated in 0.5 mg per day.

For data set [3], the system named is chronic hepatitis B. Conditions: e-antigen-positive chronic hepatitis B patients; cited from earlier work.

On to “Pegberon: Y-type 40 Kd PEG modified peginterferon α 2b, Amoytop”, for which the “decline of surface antigens” value in the data set with chronic hepatitis B [1] was “faster decline in the early stage and slower decline in the later stage”. Further, the “decline in surface antigens, Week 53 to Week 65 compared with Week 36 to Week 48” value in the data set with chronic hepatitis B [2] (Pegberon 180 micrograms per week Week 0-48, suspended, resumed Week 53-61, ETV 0.5 mg per day since Week 49) was “significantly faster”. In addition, in the data set on chronic hepatitis B [2] (Week 76-80, Pegberon 180 micrograms per week intermittently, combined with ETV 0.5 mg per day), the surface antigens result is reported as “less than 0.05”. For the same substance, the e-antigen seroconversion result with chronic hepatitis B [3] is on record as “about 30%”.
